Key:
human URAT1 transporter = human URAT1 transporter (Homo sapiens, UniProt Q96S37); assay: HEK293 hURAT1 stable cell-line uric acid uptake assay; assay type: cell-based; conditions: HEK293 cells stably expressing URAT1; 14C-uric acid uptake; average of four runs, each in triplicate
human OAT4 transporter [1] = molecular target: T1, human OAT4 transporter (Homo sapiens, UniProt Q9NSA0); assay: cell-based; conditions: OAT4 IC50, HEK293 cells stably expressing OAT4; 6-carboxyflorescein uptake; average of six runs, each in triplicate
human OAT4 transporter [2] = molecular target: T1, human OAT4 transporter; conditions: atropisomer 1 versus atropisomer 2

Sequences of proteins named here, by UniProt entry; tags and fusion partners are left off. A change or cut given only in a name is not applied to a line headed by its entry.
UniProt Q96S37: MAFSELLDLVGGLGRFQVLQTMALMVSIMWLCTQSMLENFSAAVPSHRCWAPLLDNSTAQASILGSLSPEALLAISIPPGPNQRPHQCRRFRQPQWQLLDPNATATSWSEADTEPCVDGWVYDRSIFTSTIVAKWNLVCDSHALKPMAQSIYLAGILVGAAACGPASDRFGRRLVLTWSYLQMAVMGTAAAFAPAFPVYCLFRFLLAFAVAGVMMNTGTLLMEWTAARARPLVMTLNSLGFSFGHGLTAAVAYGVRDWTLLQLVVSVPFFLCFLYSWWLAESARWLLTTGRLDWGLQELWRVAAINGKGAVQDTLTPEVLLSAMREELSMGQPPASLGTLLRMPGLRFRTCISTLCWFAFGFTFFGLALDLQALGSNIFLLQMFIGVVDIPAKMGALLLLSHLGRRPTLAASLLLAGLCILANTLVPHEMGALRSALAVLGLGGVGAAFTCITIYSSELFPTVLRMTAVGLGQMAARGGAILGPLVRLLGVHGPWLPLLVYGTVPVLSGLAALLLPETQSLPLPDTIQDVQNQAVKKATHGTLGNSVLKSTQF
UniProt Q9NSA0: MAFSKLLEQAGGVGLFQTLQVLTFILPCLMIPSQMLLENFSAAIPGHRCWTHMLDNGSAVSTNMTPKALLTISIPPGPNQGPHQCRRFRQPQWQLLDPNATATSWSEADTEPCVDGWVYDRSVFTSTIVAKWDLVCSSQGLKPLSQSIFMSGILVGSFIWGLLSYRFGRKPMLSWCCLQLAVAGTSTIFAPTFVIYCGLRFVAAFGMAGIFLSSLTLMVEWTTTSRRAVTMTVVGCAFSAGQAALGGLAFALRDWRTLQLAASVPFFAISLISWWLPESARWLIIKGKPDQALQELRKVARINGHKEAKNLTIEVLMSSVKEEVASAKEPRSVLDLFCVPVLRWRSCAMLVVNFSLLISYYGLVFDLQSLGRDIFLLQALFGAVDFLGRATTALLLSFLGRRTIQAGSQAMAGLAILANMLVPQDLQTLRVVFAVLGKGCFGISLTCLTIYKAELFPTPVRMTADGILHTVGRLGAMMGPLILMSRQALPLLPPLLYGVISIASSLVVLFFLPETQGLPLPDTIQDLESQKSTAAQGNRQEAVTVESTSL

SMILES | IC50 (human URAT1 transporter) | IC50 (human OAT4 transporter [1]) | Activity against OAT4, comparison of atropisomers (human OAT4 transporter [2])
O=C(O)CSc1nnc(Br)n1-c1ccc(C2CC2)c2ccccc12 (racemic) [Compound (I), 2-(5-bromo-4-(4-cyclopropylnaphthalen-1-yl)-4H-1,2,4-triazol-3-ylthio)acetic acid] | 9.5 µM | 4.25 µM | –
O=C(O)CSc1nnc(Br)n1-c1ccc(C2CC2)c2ccccc12 (single isomer, unassigned) [Atropisomer 1, (−)-2-(5-bromo-4-(4-cyclopropylnaphthalen-1-yl)-4H-1,2,4-triazol-3-ylthio)acetic acid] | 17.4 µM | 3.68 µM | equally active
O=C(O)CSc1nnc(Br)n1-c1ccc(C2CC2)c2ccccc12 (single isomer, unassigned) [Atropisomer 2, (+)-2-(5-bromo-4-(4-cyclopropylnaphthalen-1-yl)-4H-1,2,4-triazol-3-ylthio)acetic acid] | 4.3 µM | 4.36 µM | equally active

Source: patent US20170319552A1, “ATROPISOMERS OF TRIAZOLE DERIVATIVE” (ARDEA BIOSCIENCES, INC., priority 2016, published 2017)
